Molecular target: T1, FLT3 (Homo sapiens, UniProt P36888)
T1 construct: purchased Invitrogen PV3182
Assay: FLT3 inhibition assay (Z-Lyte)
Format: biochemical
Conditions: read-out: IC50 Ranges Flt3

Sequences of proteins named here, by UniProt entry; tags and fusion partners are left off. Residues count along the entry.
UniProt P36888, 27-993: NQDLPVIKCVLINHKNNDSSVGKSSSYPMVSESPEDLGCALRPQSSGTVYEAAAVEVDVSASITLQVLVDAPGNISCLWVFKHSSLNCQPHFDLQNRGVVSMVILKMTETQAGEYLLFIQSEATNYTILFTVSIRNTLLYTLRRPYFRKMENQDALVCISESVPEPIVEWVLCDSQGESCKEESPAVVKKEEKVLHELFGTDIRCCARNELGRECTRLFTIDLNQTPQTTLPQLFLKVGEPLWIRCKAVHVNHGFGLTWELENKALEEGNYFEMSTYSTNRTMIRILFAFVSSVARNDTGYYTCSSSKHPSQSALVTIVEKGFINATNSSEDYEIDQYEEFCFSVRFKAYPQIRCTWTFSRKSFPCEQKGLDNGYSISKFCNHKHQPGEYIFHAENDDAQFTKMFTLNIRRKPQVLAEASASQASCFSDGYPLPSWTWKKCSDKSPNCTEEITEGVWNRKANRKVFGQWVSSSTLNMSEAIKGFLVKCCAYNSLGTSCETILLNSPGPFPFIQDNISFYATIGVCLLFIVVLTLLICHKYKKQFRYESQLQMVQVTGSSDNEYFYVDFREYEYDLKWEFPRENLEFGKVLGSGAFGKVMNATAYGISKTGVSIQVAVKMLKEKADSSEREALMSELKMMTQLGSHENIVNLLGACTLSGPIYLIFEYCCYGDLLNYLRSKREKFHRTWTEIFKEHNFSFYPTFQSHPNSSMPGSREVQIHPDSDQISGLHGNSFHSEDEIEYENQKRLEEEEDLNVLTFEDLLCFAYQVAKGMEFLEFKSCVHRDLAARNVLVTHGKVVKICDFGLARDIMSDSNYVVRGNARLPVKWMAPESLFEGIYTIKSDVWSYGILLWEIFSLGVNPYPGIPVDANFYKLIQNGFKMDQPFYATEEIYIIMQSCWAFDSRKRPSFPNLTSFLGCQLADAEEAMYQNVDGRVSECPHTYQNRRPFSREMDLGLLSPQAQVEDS

In the case of COc1ccc2c(c1)[C@]1(C[C@H]1c1ccc3c(C#Cc4ccc(CN5CCOCC5)cc4)n[nH]c3c1)C(=O)N2 (relative stereo) [Example A138, (1R*,2S*)-5′-methoxy-2-(3-((4-(morpholinomethyl)phenyl)ethynyl)-1H-indazol-6-yl)spiro[cyclopropane-1,3′-indolin]-2′-one 2,2,2-trifluoroacetate], the IC50 is reported as 100 to 1000 nM.
